Data published in PubChem BioAssay AID504339 (National Center for Advancing Translational Sciences (NCATS), 2011).
This is a selection; strong and weak results do not stand in their true shares. Results filed as inconclusive are left out. Entries that show only a call come without a potency. Calls of active or inactive are those of the source. Calls follow the shape of the dose curve; as a rule, active = well fitted inhibition curve with a large enough effect; inconclusive = small, poorly fitted or top-dose-only effect; inactive = no such curve, though single readings can be large or run the other way.

By UniProt entry, the sequences of proteins in these tests, tags left out.
UniProt O75164, whole entry: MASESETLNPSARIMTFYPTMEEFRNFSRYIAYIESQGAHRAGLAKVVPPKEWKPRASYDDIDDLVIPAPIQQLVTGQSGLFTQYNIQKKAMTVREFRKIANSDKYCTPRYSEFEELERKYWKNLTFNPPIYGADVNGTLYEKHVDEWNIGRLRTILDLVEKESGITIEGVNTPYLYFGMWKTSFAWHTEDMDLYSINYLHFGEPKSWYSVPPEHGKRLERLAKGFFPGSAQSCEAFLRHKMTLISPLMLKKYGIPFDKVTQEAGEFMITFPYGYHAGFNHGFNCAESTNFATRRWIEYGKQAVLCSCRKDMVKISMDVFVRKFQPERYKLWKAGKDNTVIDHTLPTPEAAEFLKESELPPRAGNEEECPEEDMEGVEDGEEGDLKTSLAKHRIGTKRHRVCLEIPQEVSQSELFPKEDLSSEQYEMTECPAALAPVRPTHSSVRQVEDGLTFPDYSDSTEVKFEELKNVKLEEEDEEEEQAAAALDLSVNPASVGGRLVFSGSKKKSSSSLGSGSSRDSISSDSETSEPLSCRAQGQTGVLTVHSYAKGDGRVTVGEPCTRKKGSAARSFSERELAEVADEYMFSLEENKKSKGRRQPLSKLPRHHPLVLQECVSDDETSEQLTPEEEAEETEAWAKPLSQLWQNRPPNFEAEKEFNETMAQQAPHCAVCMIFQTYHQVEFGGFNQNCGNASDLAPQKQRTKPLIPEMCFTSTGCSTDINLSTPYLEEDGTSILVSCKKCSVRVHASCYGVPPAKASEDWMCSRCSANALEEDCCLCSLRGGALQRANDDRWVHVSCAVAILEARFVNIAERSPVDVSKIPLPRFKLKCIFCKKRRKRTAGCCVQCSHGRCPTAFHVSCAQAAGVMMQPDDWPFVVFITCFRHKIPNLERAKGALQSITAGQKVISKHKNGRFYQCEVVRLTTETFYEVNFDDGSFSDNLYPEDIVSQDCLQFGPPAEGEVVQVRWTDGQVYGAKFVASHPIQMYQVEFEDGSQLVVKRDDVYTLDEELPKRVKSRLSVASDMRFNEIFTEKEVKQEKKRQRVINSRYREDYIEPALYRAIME

Target: Lysine-specific demethylase 4A (Homo sapiens) (UniProt O75164)
Test: qHTS Assay for Inhibitors of JMJD2A-Tudor Domain; also: nearly all actives have a fitted effect of over 50% in size
Conditions: AlphaScreen JMJD2A-Tudor / H3K4me3 peptide binding; series mostly up to 114 µM
Potency is read from the fitted curve at half-maximal effect.

| Compound | Potency |
| --- | --- |
| CCC(=O)N(c1ccccc1)C1(COC)CCN(CCc2cccs2)CC1 | active: 50.1 µM |
| CCC(=O)N(c1ccccc1)C1(COC)CCN(CCn2nnn(CC)c2=O)CC1 | inactive |
